The assay addresses ORL1 receptor (Homo sapiens, UniProt P41146). The experiment in a line: ORL1 receptor binding assay with 3H-nociceptin/orphanin FQ, membranes of recombinant CHO-ORL1 cells. To be noted: read-out: Ki ORL1 binding assay, 3H-nociceptin/orphanin FQ 0.5 nM.

Sequences of proteins named here, by UniProt entry; tags and fusion partners are left off. A change or cut given only in a name is not applied to a line headed by its entry.
UniProt P41146: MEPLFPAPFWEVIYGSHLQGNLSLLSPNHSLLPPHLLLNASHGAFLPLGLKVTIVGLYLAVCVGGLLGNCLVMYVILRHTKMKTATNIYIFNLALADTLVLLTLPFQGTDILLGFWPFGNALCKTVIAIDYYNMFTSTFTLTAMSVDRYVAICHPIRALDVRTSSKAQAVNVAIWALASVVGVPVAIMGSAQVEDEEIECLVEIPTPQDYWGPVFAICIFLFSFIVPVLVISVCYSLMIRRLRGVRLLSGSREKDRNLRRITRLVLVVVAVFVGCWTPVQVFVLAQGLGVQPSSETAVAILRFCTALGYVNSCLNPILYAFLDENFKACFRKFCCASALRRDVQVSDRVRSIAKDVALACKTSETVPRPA

The results in this text go back to patent US7211694B2, “Substituted 4-aminocyclohexanols” (dated 2007).

In the case of `CN(C)C1(c2ccccc2)CCC(OCc2cccc(F)c2)CC1` (stereo not drawn), the Ki was determined as 30 nM.

Take `CN(C)C1(c2ccccc2)CCC(OCc2ccc(F)cc2)CC1` (stereo not drawn): the Ki worked out at 40 nM.

For the compound `CN(C)C1(Cc2ccccc2)CCC(OCc2ccccc2F)CC1` (stereo not drawn), the Ki came to 400 nM.

Consider `CN(C)C1(Cc2ccccc2)CCC(OCc2ccccc2)CC1` (stereo not drawn), for which the Ki came to 100 nM.

On to `CN(C)C1(Cc2ccccc2)CCC(OCc2ccc(F)cc2)CC1` (stereo not drawn), for which the Ki stood at 200 nM.

With `CN(C)C1(Cc2ccccc2)CCC(OCc2cccc(F)c2)CC1` (stereo not drawn), the Ki amounted to 100 nM.
